{"source": "patent US20250051376A1", "about": "“BENZIMIDAZOLE DERIVATIVE COMPOUNDS AND USE THEREOF” (PHARMGEN SCIENCE, INC., priority 2021, published 2025)", "key": {"gastric acid secretion": {"test_system": "gastric acid secretion", "assay": "Gastric acid releasing suppression ability test by oral administration (pylorus-ligated, histamine-stimulated rats)", "format": "in vivo", "conditions": "oral 3 mg/5 ml/kg in 0.5% methylcellulose, pylorus ligation 30 min after dosing, histamine s.c., gastric fluid collected 3 hours after surgery", "protocol": "A week before the test, test animals (rats) were purchased and acclimatized. After acclimatization, food was removed the day before the test and fasting was performed for 24 hours using a fasting plate. The weight of each individual was measured, weight ranking was sequentially assigned to each group, and the average value of each group was randomly distributed so that the average value was evenly distributed. Test material (the embodiment compound and comparison compound) were used by dissolving them in 0.5% methylcellulose solution, and tegoprazan was used as a comparative compound. The prepared test material was orally administered to test animals at an amount of 3 mg/5 ml/kg, and 30 minutes later, inhalation anesthesia (3% isoflurane) was performed for 3 minutes using an inhalation anesthesia machine. After making a minimal incision in the upper abdomen about 1 cm below the left side of the sternum of an anesthetized test animal, the stomach was exposed, and the pyloric ring, which is the connection between the stomach and the duodenum, was ligated. The stomach and duodenum were restored to their original positions, and the laparotomy site was sutured well with surgical staplers. […] Efficacy was evaluated by calculating total acidity by combining the amount of gastric fluid and the amount of 0.01N NaOH required for titration."}, "[1]": {"assay": "Water solubility test (pH 6.8)", "conditions": "0.5M Tris-HCl pH 6.8; concentration when completely dissolved, by naked eye; highest concentration prepared 5.12 mg/ml"}}, "data": [{"compound": "Cc1nc2c(O[C@H]3CCOc4cc(F)cc(F)c43)cc(C(=O)N(C)C)cc2n1P(=O)(OC(C)C)OC(C)C", "values": [{"measurement": "gastric acid releasing suppression ability (% INH, Mean ± SD)", "setting": "gastric acid secretion", "value": "99.7 ± 0.2", "unit": "% INH"}, {"measurement": "Solubility, pH 6.8", "setting": "[1]", "value": 0.01, "unit": "mg/ml"}]}]}
